Experiment: Erlotinib Cmax in healthy volunteers
Conditions: human, in vivo, single oral dose of 100 mg, read-out: Cmax converted to molar

Cmax: ~3.23 µM
Compound: C#Cc1cccc(Nc2ncnc3cc(OCCOC)c(OCCOC)cc23)c1 [Erlotinib]
